{"source": "patent US20130218474A1", "about": "“Benchmarks for Normal Cell Identification” (priority 2012, published 2013)", "tested_on": "FLT3 induced pAKT signal", "experiment": "Block of FLT3 induced pAKT signal", "format": "cell-based", "settings": "100 nM"}
{"smiles": "CC(C)(C)c1cc(NC(=O)Nc2ccc(-c3cn4c(n3)sc3cc(OCCN5CCOCC5)ccc34)cc2)no1", "values": [{"measurement": "block of the FLT3 induced pAKT signal", "result": "Administering a 100 nM concentration of AC220 can block ~80-90%"}]}
